In ChEMBL document CHEMBL1158490, “Discovery of leukotriene A4 hydrolase inhibitors using metabolomics biased fragment crystallography” (J Med Chem, 2009) one finds IC50 data, which are given here for two compounds.

What is called IC50 is the concentration needed to halve the response being measured.

The target in experiment [1] is T1, Leukotriene A-4 hydrolase (Homo sapiens, UniProt P09960).
T1 sequence (P09960 whole entry): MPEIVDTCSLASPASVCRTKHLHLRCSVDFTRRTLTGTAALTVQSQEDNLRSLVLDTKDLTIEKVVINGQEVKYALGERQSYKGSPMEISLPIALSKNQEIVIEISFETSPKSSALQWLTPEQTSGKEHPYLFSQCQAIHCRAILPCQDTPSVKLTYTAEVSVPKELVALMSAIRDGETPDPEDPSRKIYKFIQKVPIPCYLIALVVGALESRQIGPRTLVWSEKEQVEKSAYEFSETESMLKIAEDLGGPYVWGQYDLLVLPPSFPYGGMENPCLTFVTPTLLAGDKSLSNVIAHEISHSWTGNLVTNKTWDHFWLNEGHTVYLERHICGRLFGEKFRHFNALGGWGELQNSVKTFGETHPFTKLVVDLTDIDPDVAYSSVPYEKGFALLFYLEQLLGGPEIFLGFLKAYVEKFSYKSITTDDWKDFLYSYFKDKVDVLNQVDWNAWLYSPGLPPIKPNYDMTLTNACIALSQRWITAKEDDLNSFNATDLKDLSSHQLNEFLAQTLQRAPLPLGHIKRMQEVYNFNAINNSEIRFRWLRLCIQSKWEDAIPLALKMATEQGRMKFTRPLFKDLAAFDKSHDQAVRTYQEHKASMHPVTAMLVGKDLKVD
Kind of experiment: Inhibition of hydrolase activity of human recombinant LTA4H expressed in Escherichia coli BL21-AI/pRARE assessed as LTB4 formation by tandem quadrupole mass spectrometry.

Experiment [2] concerns the target T1, Leukotriene A-4 hydrolase. Kind of experiment: Inhibition of peptidase activity of human recombinant LTA4H expressed in Escherichia coli BL21-AI/pRARE.

With `O=C(O)CCCN1CCC[C@@H]1COc1ccc(Oc2ccc(Cl)cc2)cc1`, the IC50 in experiment [1] was 0.0708 µM.

Take `O=C(c1ccncc1)c1ccc(F)cc1`: in experiment [2], the IC50 stood at 3670 µM.
